Values quoted from earlier work, collected in paper PMC10788894 (Journal of Medicinal Chemistry, 2023).

Test system: SOS1 over SOS2
Details: reported

Structure (SMILES)	selectivity for SOS1 over SOS2
CNCc1ccccc1-c1csc([C@@H](C)Nc2nc(C)nc3cc(OC)c(OC)cc23)c1 [BAY-293]	highly selective for SOS1 over SOS2
Cc1c(C#N)cccc1[C@@H](C)Nc1nnc(C)c2cnc(N3CCOCC3)cc12 [MRTX0902]	highly selective for SOS1 over SOS2
